miR-21 FLuc = miR-21 reporter, rising signal; Potency, µM (titrated, usually from 38.3 µM), without a hit: at the highest dose reporter change, positive = more light; AID 2288; 340,000 tested, under 10 active; HeLa miR-21 FLuc reporter, luciferase, 48 h; active = well fitted rising curve with a large enough effect; inconclusive = small, poorly fitted or top-dose-only effect; inactive = no such curve, though single readings can be large or run the other way;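 note: % of control where 0% means no effect; miR-21 action dims this reporter so a rising signal means less miR-21 action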
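HeLa cells endogenously expressing miR-21, stably carrying CMV-driven firefly luciferase with a downstream miR-21 binding site, 2000 cells/well. Titrations up to approximately 40 uM, 48 hours; luciferase luminescence read.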
p53 reactivator = restores transcriptional activity of mutant p53; H1299 p53-A138V BP100-luciferase reporter, luminescence, 24 h; Potency, µM (top dose mostly 92.2 µM), inactives show top-dose activity change, positive = activation, hits mostly activators; actives 0.063% (n = 320,000); also: potency is read from the fitted curve at half-maximal effect; % of control where 0% means no effect; nearly all actives have a fitted effect of over 45% in size
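H1299 (p53-null), stable ts p53-A138V + BP100-Luc; 1000 cells/well, Opti-MEM/10% FBS; cpd 4 pt, 1:5; 24 h, 37 deg C, 5% CO2; detection reagent 10 min RT; luminescence.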
A549 viability = counter-screen for Nrf2 inhibitors: cytotoxicity in A549 cells; A549 ARE-Fluc cells, CellTiter-Fluor viability, 18-24 h; Potency, µM (doses to about 46 µM), for inactives: at the top dose activity change, negative = cytotoxicity, most hits filed as inhibitors; actives 0.16% (n = 390,000); AID 504648; also: potency is read from the fitted curve at half-maximal effect; % is scaled to controls: 0 for no effect and ±100 for the full control effect
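A549 ARE_Fluc cells in 5% FBS OPTI-MEM were exposed to compounds in concentration-response for 18-24 h at 37 deg C. Viability was read by CellTiter-Fluor fluorescence (Ex 405/Em 525) after 30 min, before the luciferase read.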
Nrf2 activator = activators of Nrf2 (ARE) signaling; AID 624171; Potency, µM (titrated, usually from 46.1 µM), for the others: top-dose activation, usual class: activators; AREc32 ARE-luciferase reporter (MCF7-derived line), luminescence, 24 h; actives 0.31% (n = 410,000); also: potency is read from the fitted curve at half-maximal effect; % of control where 0% means no effect; nearly all actives have a fitted effect of over 65% in size
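Nrf2 activation is followed as ARE-luciferase induction in the AREc32 line after one day of compound treatment; luminescence is read with Steady-Glo.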
Nrf2 inh = blocks Nrf2 signaling | AID 504444 | actives 2.1% (n = 360,000) | A549 ARE-Fluc reporter, luciferase luminescence, 18-24 h | Potency, µM (highest dose often 46 µM), inactives show at the top dose activity change, negative = inhibition, usual class: inhibitors; also: potency is read from the fitted curve at half-maximal effect; % is scaled to controls: 0 for no effect and ±100 for the full control effect; nearly all actives have a fitted effect of over 60% in size
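Cells were seeded and rested 2 h, then exposed to compounds for 18-24 h. CellTiter-Fluor was read first as a viability measure. BugLite was added 15 min before the final luminescent read of ARE-luciferase activity in A549 cells.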
ClpP mod = qHTS Assay for Activators of ClpP; ATP-dependent Clp protease proteolytic subunit (Bacillus subtilis (strain 168)), P80244; purified B. subtilis ClpP, FRET peptide cleavage, 20 min; Potency, µM (titrated, usually from 57.5 µM), for inactives: at the top dose activity change, negative = active; actives 1.9% (n = 340,000); active = well fitted falling curve with a large enough effect; inconclusive = small, poorly fitted or top-dose-only effect; inactive = no such curve, though single readings can be large or run the other way; also: potency is read from the fitted curve at half-maximal effect; the source files actives as falling curves though it sought activators and does not explain the sign; nearly all actives have a fitted effect of over 65% in size
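FRET quenching reversal measured ClpP activation: 10 microg/mL B. subtilis ClpP at pH 8 with the FRET-FV decapeptide, read at 430 nm after 320 nm excitation. The 20-min minus 0-min signal was scaled between DMSO/no-enzyme wells and ADEP (5.8 microM final).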
* hit, by the source's call; ? = inconclusive; · = no result; [ ] = another dose, or the depositor's remark. An excerpt weighted towards active compounds, which were near 3.7% of everything screened. Unless noted, calls follow the shape of the dose curve; as a rule, active = well fitted curve in the direction sought with a large enough effect; inconclusive = small, poorly fitted or top-dose-only effect, or another doubt; inactive = no such curve, though single readings can be large; an effect the other way counts as inactive or inconclusive.

The chains behind the UniProt entries cited, without tags or fusion partners.
ATP-dependent Clp protease proteolytic subunit (Bacillus subtilis (strain 168)), P80244, UniProt P80244, whole entry, looked up: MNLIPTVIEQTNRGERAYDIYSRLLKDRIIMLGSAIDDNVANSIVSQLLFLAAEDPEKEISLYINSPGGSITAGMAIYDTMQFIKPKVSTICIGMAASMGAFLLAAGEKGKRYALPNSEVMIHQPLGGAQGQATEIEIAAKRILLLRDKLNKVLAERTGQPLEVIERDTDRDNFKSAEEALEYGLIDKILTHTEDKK

Short forms – A = miR-21 FLuc; B = p53 reactivator; C = A549 viability; D = Nrf2 activator; E = Nrf2 inh; F = ClpP mod
COc1ccc(/C(N)=N/OC(=O)c2cccs2)cc1OC
  A: 2% | B: 4% | C: -12% | D: ? | E: ? | F: ·

Cc1cccc(/C(N)=N/OC(=O)c2cccs2)c1
  A: -48% | B: 23% | C: -11% | D: 14µM* | E: ? | F: -1%

N/C(=N\OC(=O)c1cccc(Br)c1)c1ccc(Br)cc1
  A: -9% | B: 2% | C: 0% | D: ? | E: 26% | F: -4%

N/C(=N\OC(=O)c1ccc(Br)cc1)c1ccccc1
  A: -42% | B: ? | C: 3% | D: 8.9µM* | E: · | F: -1%

Cc1ccc(/C(N)=N/OC(=O)c2cccs2)cc1
  A: -58% | B: ? | C: -2% | D: ? | E: ? | F: -1%

N/C(=N\OC(=O)c1cccs1)c1cccc(Br)c1
  A: -64% | B: 6% | C: -1% | D: 11µM* | E: ? | F: ·

N/C(=N\OC(=O)c1cccs1)c1ccccc1
  A: -59% | B: ? | C: 5% | D: 10µM* | E: ? | F: ·

CCOC(=O)c1sc(NC(=O)C(C)Sc2nc(-c3ccccc3)cc(C(F)(F)F)n2)c(C(=O)OC)c1C (stereo not given)
  A: -1% | B: · | C: -7% | D: -1% | E: 1% | F: -2%

COc1ccc(C(=O)O/N=C(\C)c2nccs2)cc1
  A: 1% | B: 8% | C: 19% | D: 3% | E: ? | F: ·

COc1ccc(C(=O)O/N=C(/C)c2cccs2)cc1
  A: 1% | B: 10% | C: 10% | D: 18µM* | E: · | F: -3%

Cc1csc(CNc2ncnc3cc(-c4ccc5c(c4)OCO5)ccc23)n1
  A: · | B: · | C: -8% | D: · | E: -5% | F: ·

CCc1ccc(-c2nc(SCC(=O)NCC3CCCO3)c(-c3ccc(C)cc3)[nH]2)cc1 (stereo not given)
  A: -1% | B: · | C: 1% | D: -1% | E: 11% | F: 32µM*

COCCCNC(=O)CSc1nc(-c2ccccc2)[nH]c1-c1ccc(C)cc1
  A: 14% | B: · | C: -12% | D: 0% | E: ? | F: 25µM*

COCCCNC(=O)CSc1nc(-c2cccc(F)c2)[nH]c1-c1ccccc1
  A: 18% | B: · | C: -24% | D: 0% | E: 15µM* | F: 28µM*

COc1ccc(-c2nc(SCC(=O)NCc3ccco3)c(-c3ccccc3)[nH]2)cc1OC
  A: 17% | B: -5% | C: -6% | D: 4% | E: -5% | F: ?

NC(=O)N=Nc1c2[nH]c3ccccc3nc-2c2ccccc12
  A: 27% | B: -7% | C: ? | D: 10% | E: 10µM* | F: ·

COc1ccc(CCNC(=O)c2sc3nc4n(c(=O)c3c2C)CCCC4)cc1OC
  A: 5% | B: · | C: -2% | D: 0% | E: -14% | F: 0%

Clc1ccccc1-c1ncc(-c2ccccc2)o1
  A: -56% | B: · | C: -2% | D: 10µM* | E: ? | F: 4%

COc1ccc2[nH]c(C)cc(=O)c2c1
  A: -5% | B: 7% | C: -8% | D: 0% | E: -12% | F: 25µM*

Cc1cc(=O)c2cc(C(=O)c3ccccc3)ccc2[nH]1
  A: -18% | B: 21% | C: 14% | D: -1% | E: -2% | F: -3%

CCOC(=O)c1ccc2[nH]c(C)cc(=O)c2c1
  A: -15% | B: 2% | C: 0% | D: 0% | E: 2% | F: 3.5µM*

COC(=O)c1ccc2[nH]c(C)cc(=O)c2c1
  A: -5% | B: -3% | C: -9% | D: 3% | E: 9% | F: 28µM*

CCOC(=O)c1ccc2[nH]c(C)c(C)c2c1
  A: · | B: · | C: -10% | D: 7% | E: ? | F: -8%

CCOC(=O)c1c(C)oc2nc(C)nc(NCCc3ccc(S(N)(=O)=O)cc3)c12
  A: -3% | B: · | C: -7% | D: 4% | E: -6% | F: 0%

CCOc1ccc(CNC(=O)c2cnc(SC)nc2C)cc1
  A: 9% | B: · | C: 3% | D: 1% | E: ? | F: -1%

Given with values under each structure: 2 of the compounds above.
Second line of a record – miR-21 FLuc	p53 reactivator	A549 viability	Nrf2 activator	Nrf2 inh	ClpP mod
> COCCCNC(=O)CSc1nc(-c2ccccc2)[nH]c1-c1ccc(C)cc1
 : 14%	·	-12%	0%	?	25µM*
> COCCCNC(=O)CSc1nc(-c2cccc(F)c2)[nH]c1-c1ccccc1
 : 18%	·	-24%	0%	15µM*	28µM*

Compounds listed so far that contain a furan ring, fused or not, in the order listed:
Short forms – A = miR-21 FLuc; B = p53 reactivator; C = A549 viability; D = Nrf2 activator; E = Nrf2 inh; F = ClpP mod
COc1ccc(-c2nc(SCC(=O)NCc3ccco3)c(-c3ccccc3)[nH]2)cc1OC
  A: 17% | B: -5% | C: -6% | D: 4% | E: -5% | F: ?

CCOC(=O)c1c(C)oc2nc(C)nc(NCCc3ccc(S(N)(=O)=O)cc3)c12
  A: -3% | B: · | C: -7% | D: 4% | E: -6% | F: 0%

(cont.)
Short forms – A = miR-21 FLuc; B = p53 reactivator; C = A549 viability; D = Nrf2 activator; E = Nrf2 inh; F = ClpP mod
COc1cccc(OCc2cc(C(=O)N3CCC(c4ccncc4)CC3)no2)c1
  A: 22% | B: 14% | C: -17% | D: 3% | E: 5.2µM* | F: 1%

O=C(c1cc(COc2cccc(C(F)(F)F)c2)on1)N1CCC(c2ccncc2)CC1
  A: -1% | B: 11% | C: -12% | D: 2% | E: 13µM* | F: 1%

O=C(c1cc(COc2cccc(C(F)(F)F)c2)on1)N1CCC(c2ccccc2)CC1
  A: -4% | B: -5% | C: -19% | D: 0% | E: 13µM* | F: 1%

CC(=O)c1ccc(OCc2cc(C(=O)N3CCC(c4ccncc4)CC3)no2)cc1
  A: 17% | B: 0% | C: 1% | D: 8% | E: 0% | F: 5%

CCc1ccc(CNC(=O)c2cccc(-n3c(C)nc4cccnc43)c2)cc1
  A: 16% | B: · | C: -3% | D: 1% | E: ? | F: -1%

O=S1(=O)N=C(Sc2ccc3c(c2)OCCO3)c2ccccc21
  A: · | B: · | C: 0% | D: · | E: -30% | F: ·

CCN1CCc2c(sc(N)c2C#N)C1
  A: -4% | B: -7% | C: -7% | D: 3% | E: 9% | F: 28µM*

CC(C)N1CCc2c(sc(N)c2C#N)C1
  A: 2% | B: -1% | C: -6%[1.84 µM] | D: 0% | E: 5% | F: 25µM*

CC(C)(C)c1ccc(CN(Cc2ccco2)c2cnc(S(C)(=O)=O)nc2C(=O)Nc2ccc(F)cc2)cc1
  A: 9% | B: · | C: 3% | D: 7% | E: 2% | F: -2%

CCOC(=O)c1[nH]c(C)c(CCC(=O)N2CCN(c3ccc(OC)cc3)CC2)c1C
  A: -1% | B: · | C: -3% | D: -1% | E: · | F: 1%

Cc1cc(N2CCN(S(=O)(=O)c3ccccc3)CC2)c2ccccc2n1
  A: 15% | B: -5% | C: -17% | D: 0% | E: 21µM* | F: -3%

O=S(=O)(c1ccccc1)N1CCN(c2ccnc3cc(Cl)ccc23)CC1
  A: 26% | B: -6% | C: -19% | D: 2% | E: 23µM* | F: ·

O=C(Cn1nc(Cl)nc1Cl)c1cc2ccccc2oc1=O
  A: 0% | B: 3% | C: 11% | D: ? | E: 1% | F: 28µM*

Cc1cc(C)c[n+](CC(=O)c2cc3ccccc3oc2=O)c1
  A: -2% | B: -1% | C: -17% | D: 6% | E: -28% | F: 28µM*

Cc1ccc[n+](CC(=O)c2cc3ccccc3oc2=O)c1
  A: -8% | B: 9% | C: -3% | D: 6% | E: ? | F: ?

COc1ccccc1-c1c(C(F)(F)F)oc2cc(OS(C)(=O)=O)ccc2c1=O
  A: 5% | B: ? | C: -11% | D: 2% | E: 8.2µM* | F: -2%

Cc1ccccc1CS(=O)(=O)CCC(=O)N1CCN(c2ccc(N3CCOCC3)nn2)CC1
  A: -8% | B: 1% | C: 6% | D: 0% | E: 9% | F: 22µM*

CCN(CC)C(=O)N1CCN(C)CC1
  A: -3% | B: · | C: 16% | D: 0% | E: 13µM* | F: -3%

O=[S+]([O-])(c1ccc2c(c1)OCCO2)N1CCN([S+](=O)([O-])c2c(F)cc(Br)cc2F)CC1
  A: · | B: · | C: 10% | D: · | E: -7% | F: ·

O=C(c1ccc2c(c1)OCCO2)C1CCN(S(=O)(=O)c2ccccc2F)CC1
  A: 1% | B: 1% | C: -21% | D: 0% | E: 13µM* | F: -6%

O=S(=O)(c1ccc2c(c1)OCCO2)N1CCN(S(=O)(=O)c2ccccc2F)CC1
  A: · | B: · | C: -6% | D: · | E: -8% | F: ·

Cc1ccc(S(=O)(=O)NCC(c2ccc(N(C)C)cc2)N2CCCC2)cc1 (stereo not given)
  A: -9% | B: · | C: 0% | D: 3% | E: · | F: -3%

Screening results from PubChem.
